In one assay the target is human BACE1 (Homo sapiens, UniProt P56817). Put plainly: Fluorescent kinetic assay, inhibition of BACE1 (WABC-6 peptide substrate). It is filed as biochemical. The conditions noted are these: read-out: IC50 (μM) BACE1.; 10 nM enzyme, 25 μM substrate, pH 4.5, room temperature.
The next assay deals with human BACE2 (Homo sapiens, UniProt Q9Y5Z0). The assay can be described thus: Fluorescent kinetic assay for human recombinant BACE 2 (WABC-6 peptide substrate). The conditions noted are these: read-out: IC50 (μM) BACE2.; 1.5 nM enzyme, 25 μM substrate, pH 4.5, room temperature. The format is biochemical.

Amino acid sequences for entries named in this document (tags omitted). Residues count along the entry.
UniProt P56817, 46-501 limits assumed: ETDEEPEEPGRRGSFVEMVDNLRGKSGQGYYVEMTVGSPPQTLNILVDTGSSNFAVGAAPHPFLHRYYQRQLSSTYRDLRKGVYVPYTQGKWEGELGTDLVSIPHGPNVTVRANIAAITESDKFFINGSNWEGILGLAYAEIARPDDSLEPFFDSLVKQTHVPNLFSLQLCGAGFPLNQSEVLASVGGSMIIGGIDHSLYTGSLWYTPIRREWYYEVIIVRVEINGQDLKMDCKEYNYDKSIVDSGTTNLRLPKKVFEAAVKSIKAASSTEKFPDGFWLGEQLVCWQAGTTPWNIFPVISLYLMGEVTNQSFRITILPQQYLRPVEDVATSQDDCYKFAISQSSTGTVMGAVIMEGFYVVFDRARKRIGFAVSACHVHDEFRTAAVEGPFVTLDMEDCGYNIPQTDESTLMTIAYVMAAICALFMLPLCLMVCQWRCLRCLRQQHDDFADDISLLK
UniProt Q9Y5Z0, 63-518 limits assumed: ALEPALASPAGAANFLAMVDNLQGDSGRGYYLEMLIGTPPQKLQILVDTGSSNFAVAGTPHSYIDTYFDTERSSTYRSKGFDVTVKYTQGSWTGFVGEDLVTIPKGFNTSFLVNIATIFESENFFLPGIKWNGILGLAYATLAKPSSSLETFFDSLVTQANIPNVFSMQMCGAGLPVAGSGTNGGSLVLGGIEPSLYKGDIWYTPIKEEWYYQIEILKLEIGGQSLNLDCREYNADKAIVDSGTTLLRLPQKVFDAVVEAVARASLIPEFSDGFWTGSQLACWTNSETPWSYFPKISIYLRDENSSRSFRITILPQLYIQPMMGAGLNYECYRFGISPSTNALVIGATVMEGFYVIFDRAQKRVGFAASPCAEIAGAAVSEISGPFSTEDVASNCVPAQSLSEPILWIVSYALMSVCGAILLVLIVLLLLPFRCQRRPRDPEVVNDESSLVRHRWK

Structures are written as SMILES.

By IC50 is commonly meant the point on the concentration scale where inhibition reaches its midpoint. With `NC1=NC(c2ccc(OC(F)F)cc2)(c2cccc(-c3ccc(F)nc3)c2)C2=NCCCN12` (centres unmarked), the IC50 on human BACE1 was 0.04 µM; on human BACE2 it was 1.66 µM.

The values are drawn from patent US20090042912A1, “DIPHENYLIMIDAZOLYL COMPOUNDS AS INHIBITORS OF beta-SECRETASE” (Wyeth, priority 2004, published 2009).
